Values quoted from earlier work in patent publication US12054498B2, “Heteroaromatic macrocyclic ether chemotherapeutic agents” (Nuvalent, Inc., priority 2020, dated 2024).

Test system: ALK-positive NSCLC
Conditions: ALK-positive NSCLC and other cancers; cited from earlier work

## C[C@@H](Oc1cc(-c2cnn(C3CCNCC3)c2)cnc1N)c1c(Cl)ccc(F)c1Cl [Crizotinib, crizotinib]
  median progression-free survival: 8-11 months
  overall response rate: 60-80%
